Screening data from PubChem BioAssay.
Nrf2 activator – activators of Nrf2 (ARE) signaling. 410,000 tested, 0.31% active. Potency, µM (highest dose often 46.1 µM), actives largely listed as activators. AID 624171. AREc32 ARE-luciferase reporter (MCF7-derived line), luminescence, 24 h; note: nearly all actives have a fitted effect of over 65% in size
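Nrf2 activation is followed as ARE-luciferase induction in the AREc32 line after one day of compound treatment; luminescence is read with Steady-Glo.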
p53 reactivation – mutant p53 re-activation in reporter cells; AID 504706; 320,000 tested, 0.063% active; H1299 p53-A138V BP100-luciferase reporter, luminescence, 24 h; Potency, µM (titrated, usually from 92.2 µM), actives largely listed as activators; note: nearly all actives have a fitted effect of over 45% in size
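p53-null H1299 cells stably carrying temperature-sensitive p53-A138V and a BP100-luciferase reporter were pinned with compounds (4-point, 1:5 series) and held 24 hrs at 37 deg C. Luminescence was read 10 min after detection reagent.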
miR-21 FLuc – miR-21 reporter, rising signal. HeLa miR-21 FLuc reporter, luciferase, 48 h. Potency, µM (titrated, usually from 38.3 µM). 340,000 tested, under 10 active. AID 2288; active = well fitted rising curve with a large enough effect; inconclusive = small, poorly fitted or top-dose-only effect; inactive = no such curve, though single readings can be large or run the other way;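 also: miR-21 action dims this reporter so a rising signal means less miR-21 action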
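HeLa cells endogenously expressing miR-21, stably carrying CMV-driven firefly luciferase with a downstream miR-21 binding site, 2000 cells/well. Titrations up to approximately 40 uM, 48 hours; luciferase luminescence read.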
ClpP mod – qHTS Assay for Activators of ClpP. Potency, µM (titrated, usually from 57.5 µM). ATP-dependent Clp protease proteolytic subunit (Bacillus subtilis (strain 168)), P80244. 340,000 tested, 1.9% active. purified B. subtilis ClpP, FRET peptide cleavage, 20 min; active = well fitted falling curve with a large enough effect; inconclusive = small, poorly fitted or top-dose-only effect; inactive = no such curve, though single readings can be large or run the other way; note: the source files actives as falling curves though it sought activators and does not explain the sign; nearly all actives have a fitted effect of over 65% in size
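Purified B. subtilis ClpP, 10 microg/mL final in Tris/HCl pH8 with KCl, BSA, glycerol and Tween-20, cleaved an Abz/nitrotyrosine-quenched decapeptide. Fluorescence (ex 320, em 430) was read at 0 and 20 min at room temperature. Delta was normalized to 5.8 microM ADEP and DMSO/no-enzyme controls.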
A549 tox-1 – kills or reduces viability of A549 cells in Nrf2 counter-screen; A549 ARE-Fluc cells, CellTiter-Fluor viability, 18-24 h; Potency, µM (titrated, usually from 46 µM), most hits filed as inhibitors; 390,000 tested, 0.16% active; AID 504648
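A549 ARE-Fluc cells in 5% FBS OPTI-MEM, 5000 cells/well, rested 2 h then exposed to compounds in concentration-response for 18-24 h at 37 °C. Viability by CellTiter-Fluor fluorescence (Ex 405/Em 525) after 30 min; luciferase luminescence (BugLite, 15 min, RT) read afterwards.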
Nrf2 block – inhibitors of Nrf2 signaling | Potency, µM (top dose mostly 46 µM), actives largely listed as inhibitors | 360,000 tested, 2.1% active | A549 ARE-Fluc reporter, luciferase luminescence, 18-24 h; note: nearly all actives have a fitted effect of over 60% in size
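Quantitative HTS in A549 cells stably bearing an antioxidant response element-firefly luciferase construct. Inhibition of Nrf2-driven transcription was scored by luminescence after 18-24 h of compound exposure at 37 °C.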
FLuc enzyme inh – firefly luciferase inhibition, Nrf2 hit validation; shares compounds with Nrf2 block; purified firefly luciferase, luminescence inhibition; Potency, µM (doses to about 57.5 µM), hits mostly inhibitors; 1,400 tested, 4% active; AID 720522; note: nearly all actives have a fitted effect of over 65% in size
A549 tox-2 – A549 cytotoxicity, Nrf2 inhibitor counterscreen; shares compounds with Nrf2 block; A549 ARE-Fluc cells, cytotoxicity counterscreen; Potency, µM (highest dose often 46.1 µM), actives largely listed as inhibitors; 1,400 tested, 2% active; AID 720523;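 note: cells exposed to compounds for 18 to 24 hours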
Nrf2 ARE inh – Nrf2 inhibition confirmed, A549 ARE-luciferase | 1,400 tested, 74% active | Potency, µM (highest dose often 46.1 µM), most hits filed as inhibitors | A549 ARE-firefly luciferase reporter, luminescence | shares compounds with Nrf2 block | AID 720524; note: nearly all actives have a fitted effect of over 65% in size
ClpP validation – inhibits B. subtilis ClpP protease, hit validation. shares compounds with ClpP mod. purified B. subtilis ClpP, FRET-FV substrate cleavage, 20 min. Potency, µM (series often up to 57.5 µM), usual class: inhibitors. 470 tested, 40% active. AID 743245; note: nearly all actives have a fitted effect of over 70% in size
Hits are given with their value; . = inactive; ? = inconclusive; / = no result; [ ] = dose if it differs, or a comment. A selection: hits, their analogues and other compounds. The true share with any hit is near 3.7%. Unless noted, calls come from the whole dose curve; as a rule, active = well fitted curve in the direction sought with a large enough effect; inconclusive = small, poorly fitted or top-dose-only effect, or another doubt; inactive = no such curve, though single readings can be large; an effect the other way counts as inactive or inconclusive.

SMILES	Nrf2 activator	p53 reactivation	miR-21 FLuc	ClpP mod	A549 tox-1	Nrf2 block	ClpP validation	others
O=C1c2cccc(OCC(=O)N3CCCc4ccccc43)c2CCN1Cc1ccc(F)cc1	.	.	.	.	.	.	/
CN1CCc2c(OCC(=O)N3CCCc4ccccc43)cccc2C1=O	.	.	.	.	?	9.2µM	/	FLuc enzyme inh=.;A549 tox-2=.;Nrf2 ARE inh=?
Cc1ccccc1Nc1c(-c2c[nH]c3ccccc23)nc2ccc(Cl)cn12	?	/	.	5µM	.	.	.
COc1cc(OC)c(N(C)C(=O)CSc2c3c(nc4ccc(Cl)cc24)CCCC3)cc1Cl	?	/	?	.	.	.	/
O=C(O)c1ccc2c(c1)OCCO2	.	.	.	.	.	.	/
NC(=O)c1ccc2c(c1)OCCO2	.	.	.	.	.	.	.
O=C(Cc1ccc(F)cc1)Nc1cccc(-c2nc3cccnc3s2)c1	.	/	.	8.9µM	.	.	.
O=C(Nc1cccc(-c2nc3cccnc3s2)c1)c1ccco1	?	.	.	?	.	.	/
CC(=O)Nc1cccc(NC(=O)Nc2ccc(C)c(Cl)c2)c1	.	.	.	1.8µM	.	.	.
CC(=O)Nc1ccc(NC(=O)Nc2ccc(C)c(C)c2)cc1	.	.	.	.	.	.	/
COc1ccc(C2CC(=O)c3c(C)nc(N4CCN(C=O)CC4)nc3C2)c(OC)c1 (stereo not given)	.	/	?	.	.	.	/
CCOc1ccc(-c2cn3c(n2)sc2cc(C(=O)NC4CCCc5ccccc54)ccc23)cc1 (stereo not given)	.	/	.	5µM	.	?	?
COc1ccc(-c2cn3c(n2)sc2cc(C(=O)NC4CCCCC4)ccc23)cc1	.	/	.	?	.	.	/
Cc1ccc(NC(=O)c2ccc(NC(=O)c3ccccc3)cc2)cc1C	.	?	.	.	.	?	24µM
O=C(CCCN1C(=O)C(c2ccccc2)Oc2cccnc21)NCCc1ccc(Cl)cc1 (stereo not given)	.	.	.	.	.	.	/
Cn1c(=O)c2c(n3c4ccccc4nc13)NC(=O)CC2c1cccc(F)c1 (stereo not given)	.	/	.	.	?	/	/
CC(=O)Nc1ccc(S(=O)(=O)Nc2nc3ccccc3nc2Nc2ccc3ccccc3c2)cc1	.	.	.	3.5µM	.	.	?
CC(=O)Nc1ccc(S(=O)(=O)Nc2nc3ccccc3nc2Nc2cccc(O)c2)cc1	.	.	.	/	.	.	/
Cc1ccn2c(Nc3ccc(C(C)C)cc3)c(-c3ccsc3)nc2c1	.	/	.	4µM	.	.	.
O=C(Nc1ccccc1Cl)[C@H](CSCc1ccccc1)N1Cc2ccccc2C1=O	.	/	.	.	.	.	/
COc1nc(-c2ccc(C)cc2)ccc1-c1noc(-c2cccnc2)n1	.	.	.	?	.	?	19µM
COc1nc(-c2ccccc2)ccc1-c1noc(-c2ccc(F)cc2)n1	/	.	.	/	/	/	/
O=C(Nc1ccc(Br)cc1)c1cc(-c2cccs2)nc2ccccc12	.	/	.	.	.	?	24µM
NS(=O)(=O)c1cccc(NC(=O)c2cc(-c3cccs3)nc3ccccc23)c1	.	.	.	.	.	.	/
O=C(c1cnn(C(=O)c2ccccc2)c1)c1ccccc1O	.	.	.	.	.	.	.
SMILES	Nrf2 activator	p53 reactivation	miR-21 FLuc	ClpP mod	A549 tox-1	Nrf2 block	ClpP validation	others
COc1ccc(-c2cc(C(=O)N3CCCC3)c3ccccc3n2)cc1OC	.	.	.	.	.	.	/
COc1ccc(-c2cc(C(=O)N3CCC3)c3ccccc3n2)cc1OC	.	.	/	3.2µM	.	.	.
Cn1c(SCc2ccccc2Cl)nc2c([nH]c3ccccc32)c1=O	.	/	.	.	.	/	/
CC(=O)Nc1ccc(CN2C(=O)C(C)(C)ON=C2c2ccc(NC(C)=O)cc2)cc1	.	/	/	.	/	/	/
Cc1ccc(Cl)cc1NC(=O)CCc1c(C)nc2c3cccnc3nn2c1C	.	/	.	3.5µM	.	?	19µM
CCN(C(=O)Cn1c(=O)n(Cc2ccccc2)c(=O)c2c1c1cc(OC)ccc1n2C)c1ccccc1	.	/	.	?	.	.	/
CCN(Cc1ccccc1)C(=O)Cn1c(=O)n(Cc2ccccc2)c(=O)c2c1c1cc(OC)ccc1n2C	.	/	.	0.71µM	.	.[9.27 µM]	27µM
Cn1c(=O)n(C)c2cc(NS(=O)(=O)c3ccc(C(C)(C)C)cc3)c(NCc3ccccc3)cc21	.	/	.	3.5µM	?	10µM	22µM
Fc1ccccc1N1CCN(c2nnc(C(F)(F)F)c3nnn(Cc4ccccc4)c23)CC1	.	/	.	7.9µM	.	.	19µM
Cc1nc(N2CCCC2)c2c(C(=O)Nc3cccc(Cl)c3C)c(C)oc2n1	.	/	.	.	.	.	/
O=C(Nc1cccc(Br)c1)c1cc(S(=O)(=O)N2CCCCC2)c[nH]1	.	/	.	.	.	/	.
CSc1cccc(NC(=O)c2cc(S(=O)(=O)N3CCCCC3)c[nH]2)c1	.	/	.	.	.	.	/
O=C(NCc1ccccc1Cl)[C@H]1CCCN1C(=O)[C@H]1CCCN1C(=O)c1cccc2ccccc12	.	/	/	.	/	/	/
CCN(CC)CCCNC(=O)CN1N=C(c2ccccc2)CCC1=O	.	/	.	.	.	/	/
COc1c(C)cc(C(=O)C2CCCN(S(=O)(=O)N(C)C)C2)cc1C (stereo not given)	.	.	.	2.8µM	.	?	.
CCOc1ccc(C2C=C(c3ccc(C)cc3)Nc3nnnn32)cc1 (stereo not given)	.	.	.	10µM	?	.	.
CCNC(=O)C1(C)CCCN(C(=O)c2ccc(C(F)(F)F)nc2C)C1 (stereo not given)	.	/	/	.	/	/	/
CN1CCN(S(=O)(=O)c2ccc(NC(=O)c3cccs3)cc2)CC1	.	/	.	.	.	.	/
